Read-outs that look alike come from different tables or passages of the source.
Experiments:
[1] = test system: C8161 xenografts; conditions: 19 and 25 days
Protocol: Immunodeficient nude mice were purchased from Taconic. C8161 cells were injected into flanks bilaterally at 10^6 cells per site.

[2] = test system: C8161 hGRM1-positive human melanoma cells; conditions: riluzole plus irradiation in comparison with irradiation alone; 0, 24, 48 and 72 hours after irradiation
[3] = test system: C8161 human melanoma cells; assay: Cell cycle analysis (propidium iodide flow cytometry); type: cell-based; conditions: 8 Gy, 25 uM riluzole, average of 3 experiments
Protocol: Cell pellets were fixed by drop-wise addition of ice-cold 70% ethanol and incubated overnight at 4° C. Fixed cells were washed twice with ice-cold PBS and resuspended in […] PBS. […] The experiment was repeated 3 times.

[4] = test system: hGRM1-negative UACC930 human melanoma cells; conditions: riluzole for 24 hours, escalating doses of IR; P=NS
Protocol: hGRM1-expressing C8161 [wild type (wt) for RAS and BRAF] and UACC903 (wt for RAS, mutated B-RAF, V600E) human melanoma cell line and hGRM1-negative melanoma cell line UACC930 (wt for RAS, mutated B-RAF, V600E), were obtained from Dr. Mary J. C. Hendrix (Children's Memorial Research Center, Chicago, IL) and Dr. Jeffrey M. Trent (Translational Genomics Research Center, Phoenix, AZ), respectively. Cells were cultured in monolayer at 37° C. in a 5% CO2 humidified incubator, in RPMI (InVitrogen) supplemented with 10% fetal bovine serum (Sigma).
Cells were trypsinized for retrieval and plated on 100-mm plates and allowed to attach overnight for 20 hours. […] Cells were irradiated by a Gamma Cell 40 Exactor (MDS Nordion) irradiator and then incubated overnight (20 hours). Drug was aspirated and culture media replaced at 20 hours. Plates were then monitored for 10 to 21 days and stained with crystal violet for visual counting. Colonies which contained more than 50 cells were scored as clonogenic survivors.
All clonogenic assays and cell cycle analyses experiments were repeated 3 times and the triplicate results are shown.

Nc1nc2ccc(OC(F)(F)F)cc2s1 [Riluzole, riluzole]
tumor volume ([1]; riluzole (10 mg/kg daily) plus irradiation (3 weekly fractions of 4 Gy) versus untreated controls, riluzole alone or irradiation alone): significantly smaller tumors | tumor volume ([1]; riluzole alone (10 mg/kg daily oral gavage) versus untreated or vehicle controls): significantly smaller tumors | cleaved caspase-3 / sensitization to ionizing radiation [2]: sensitized the cells to ionizing radiation | G1 ([3]; Radiation followed by Riluzole): 29.13 | G1 ([3]; Riluzole followed by Radiation): 16.25 | G2 ([3]; Riluzole followed by Radiation): 61.64 | S ([3]; Riluzole followed by Radiation): 18.45 | difference between treated and untreated control cells (survival fraction) [4]: no difference

— patent publication US12318449B2 (Rutgers, The State University of New Jersey, priority 2012, dated 2025)
